In patent US20110257139A1, “TREATMENT OF DIARRHOEA” (ROYAL COLLEGE OF SURGEONS IN IRELAND, priority 2008, published 2011):

Legend:
Na^+/K^+ ATPase = assay: Na^+/K^+-ATPase activity in permeabilized T84 monolayers (Ussing chambers); assay type: cell-based; conditions: GW4064 5 μM, 24 hrs
Source text: To measure Na^+/K^+-ATPase activity T84 cell monolayers were mounted in Ussing chambers and bathed bilaterally in low-sodium (25 mmol/L) Ringers' solution, where NaCl was substituted with equimolar N-methyl-D-glucamine (NMDG)-Cl^−. Apical membranes were permeabilized with amphotericin (50 μmol/L). Under these conditions (ie: in the absence of ionic gradients across the permeabilized monolayer) changes in Isc are wholly reflective of electrogenic transport through the Na^+/K^+-ATPase.

FXR = biological target: T1, FXR (Homo sapiens, UniProt Q96RI1); assay: Subcellular localization of FXR by immunocytochemistry and confocal microscopy; assay type: cell-based; conditions: 5 μM, 24 hr
T1 construct: endogenous in cells; host or cells: T84 cells
T1 sequence (Q96RI1 1-486): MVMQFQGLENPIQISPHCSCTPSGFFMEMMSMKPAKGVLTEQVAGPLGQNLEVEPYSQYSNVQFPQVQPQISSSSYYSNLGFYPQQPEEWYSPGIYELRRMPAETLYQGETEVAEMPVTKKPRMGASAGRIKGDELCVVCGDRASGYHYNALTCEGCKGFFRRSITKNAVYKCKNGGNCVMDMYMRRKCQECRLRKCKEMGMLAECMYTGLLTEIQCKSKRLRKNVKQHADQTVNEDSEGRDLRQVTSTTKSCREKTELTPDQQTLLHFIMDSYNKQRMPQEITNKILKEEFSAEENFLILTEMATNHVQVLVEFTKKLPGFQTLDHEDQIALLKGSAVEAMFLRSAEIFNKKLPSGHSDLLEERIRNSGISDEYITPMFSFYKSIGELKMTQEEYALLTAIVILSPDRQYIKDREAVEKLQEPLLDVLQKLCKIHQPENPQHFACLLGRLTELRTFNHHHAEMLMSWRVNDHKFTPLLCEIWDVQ
Method: Confocal Microscopy: T84 cells, plated onto Cell-Tack coated chamber slides were fixed in paraformaldehyde and permeabilised in Triton X-100. Samples were incubated with antibodies against FXR, washed and then incubated with fluorescence-conjugated secondary antibodies. Cells were visualised using an LSM 510 META laser scanning confocal microscope.
GW4064 stimulates FXR translocation to the nucleus. Subcellular localization of FXR (green) following treatment with the FXR agonist, GW4064 was investigated by immunocytochemistry and confocal microscopy. […] FIG. 3

- Na^+/K^+ ATPase activity (Na^+/K^+ ATPase): inhibited
Substance: GW4064
- FXR translocation from the cytoplasm to the nucleus (FXR): promoted the translocation of FXR from the cytoplasm to the nucleus
